Results from patent publication US9173935B2, “Phospholipid drug analogs” (Telormedix SA, priority 2010, dated 2015).
“And” between values parts separate entries of the source, which are not always exact repeats. Equal values may be shown once.

Test: Serum exposure after intravesical chronic treatment
Procedure: Serum samples were taken at time points: day 0, 2 hours, day 1, 24 hours, and day 6, 2 hours.
The plate was shaken for 10 minutes and filtered under vacuum (5-10 mm Hg). […] The plate was shaken for 10 minutes and filtered under vacuum (5-10 mm Hg). Samples were evaporated and re-suspended in 70 microliters of acetonitrile/methanol 1:1. […] Column: Acquity BEH C18 50×2.1 mm 1.7 micrometers; injection volume 5 microliters, T column 50° C. […] Column: Acquity BEH C8 50×2.1 mm 1.7 micrometers injection. volume 10 microliters, T column 50° C.

[1] = Day 6, 2 hours, LLOQ 0.5 ng/ml SC12, 2.5 ng/ml Imiquimod

CC(C)Cn1cnc2c(N)nc3ccccc3c21 [Imiquimod, reference compound]
Levels in serum, Mean ± S.D. (Day 0, 2 hours): 6.2 ± 0.8 ng/mL
Levels in serum, individual mice (Day 0, 2 hours, intravesical Imiquimod 208 nmol or SC12 206.5 nmol, LLOQ 0.5 ng/ml SC12, 2.5 ng/ml Imiquimod): 6.4 ng/mL and 6.8 ng/mL and 5.3 ng/mL
Levels in serum, Mean ± S.D. [1]: 8.9 ± 5.6 ng/mL
Levels in serum, individual mice [1]: 2.8 ng/mL and 8.1 ng/mL and 16.3 ng/mL and 8.7 ng/mL
